From PubChem BioAssay AID485 (The Scripps Research Institute Molecular Screening Center, 2006)
Only a part is listed here, and it is no random draw. Some of these compounds have results that are not shown, active ones among them. Calls of active or inactive are those of the source.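 Rule for the calls: active = inhibition above the plate cutoff, the mean inhibition of test wells on that plate plus 3 SD (cut at about 28% in these data); inactive = the rest.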

The chains behind the UniProt entries cited, without tags or fusion partners.
UniProt Q99500, whole entry: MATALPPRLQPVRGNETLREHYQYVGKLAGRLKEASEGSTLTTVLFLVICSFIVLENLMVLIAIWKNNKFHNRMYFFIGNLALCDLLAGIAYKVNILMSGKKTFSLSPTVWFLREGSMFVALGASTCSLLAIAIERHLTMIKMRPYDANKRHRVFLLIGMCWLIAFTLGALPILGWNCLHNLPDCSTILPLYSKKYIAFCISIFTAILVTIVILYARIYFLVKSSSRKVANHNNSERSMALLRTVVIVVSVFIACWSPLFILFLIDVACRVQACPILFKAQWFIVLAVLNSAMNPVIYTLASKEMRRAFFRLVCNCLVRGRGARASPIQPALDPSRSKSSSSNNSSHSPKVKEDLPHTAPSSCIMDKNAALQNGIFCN

biological target: Sphingosine 1-phosphate receptor 3 (Homo sapiens) (UniProt Q99500); test: S1P3 receptor antagonists, primary screen, cell-based (AID 485); conditions: CHO S1P3 NFAT-BLA reporter, FRET fluorescence, antagonist mode; at 4.98 µM; hits give high values;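 note: cells challenged with S1P at its EC80 of 0.8 µM; blue over green emission ratio from cleaved BLA substrate after 4 h stimulation; 0% = S1P-stimulated wells and 100% = unstimulated DMSO-only wells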

Q: `CN(C)C1CCCC1OC(=O)C(O)(c1ccccc1)c1ccccc1` (stereo not given) was tested. Which inhibition did it give?
A: inactive: 0.57%

Q: For `Cc1ccccc1C(=O)NCC1(N2CCCCC2)CCCCC1`, which inhibition is on record?
A: inactive: -27%

Q: How did the inhibition turn out when `C=CCN1CCN(CCOC(=O)C(O)(c2ccccc2)c2ccccc2)CC1` was run?
A: inactive: -4.09%

Q: For `CCN1CCCC(OC(=O)C2(O)c3ccccc3C=Cc3ccccc32)C1` (stereo not given), which inhibition is on record?
A: inactive: -19.4%

Q: How did the inhibition turn out when `O=C(NCC1(N2CCCCC2)CCCCC1)c1cc([N+](=O)[O-])ccc1Cl` was run?
A: inactive: -1.99%

Q: With `CCN(CC)CC(C)C(C)OC(=O)C(O)(c1ccccc1)c1ccccc1` (stereo not given) as the molecule, how does the inhibition read?
A: inactive: 7.04%

Q: `O=C(OC1CN2CCC1CC2)C(CO)(c1ccccc1)c1ccccc1` (stereo not given) was tested. Which inhibition did it give?
A: inactive: -9.6%

Q: How did the inhibition turn out when `COc1ccc(Br)c(C(=O)NCC2(N3CCCCC3)CCCCC2)c1` was run?
A: inactive: -2.72%

Q: For `CN(C)c1cccc(C(=O)NCC2(N(C)C)CCCCC2)c1`, which inhibition is on record?
A: inactive: -29.9%

Q: With `COc1cccc(C(=O)NCC2(N3CCCCC3)CCCCC2)c1` as the molecule, how does the inhibition read?
A: inactive: -0.14%
